# Data: US20240383856A1 (Zedira GmbH, priority 2021, published 2024)
# By UniProt entry, the sequences of proteins in these tests, tags left out.
# UniProt P21980, whole entry: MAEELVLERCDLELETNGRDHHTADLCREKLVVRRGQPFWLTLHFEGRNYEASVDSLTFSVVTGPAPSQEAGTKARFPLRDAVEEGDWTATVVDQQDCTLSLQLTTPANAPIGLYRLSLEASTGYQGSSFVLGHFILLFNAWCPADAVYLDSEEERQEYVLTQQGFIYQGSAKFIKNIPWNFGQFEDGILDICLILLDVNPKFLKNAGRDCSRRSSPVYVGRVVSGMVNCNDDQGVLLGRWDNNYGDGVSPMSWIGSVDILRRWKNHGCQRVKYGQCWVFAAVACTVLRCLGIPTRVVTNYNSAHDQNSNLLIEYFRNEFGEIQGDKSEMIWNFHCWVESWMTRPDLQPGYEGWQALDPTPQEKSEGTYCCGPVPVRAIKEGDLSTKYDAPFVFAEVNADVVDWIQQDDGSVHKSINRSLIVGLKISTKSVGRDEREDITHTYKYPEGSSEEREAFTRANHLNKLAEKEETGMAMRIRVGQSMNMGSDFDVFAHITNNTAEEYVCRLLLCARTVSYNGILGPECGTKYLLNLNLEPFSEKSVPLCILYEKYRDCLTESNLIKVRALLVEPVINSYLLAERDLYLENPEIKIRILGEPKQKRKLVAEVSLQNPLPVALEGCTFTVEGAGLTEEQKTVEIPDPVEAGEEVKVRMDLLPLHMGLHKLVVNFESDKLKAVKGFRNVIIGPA
# Experiments:
# [1] = molecular target: recombinant human transglutaminase 2 (Homo sapiens, UniProt P21980); test: Transglutaminase assay (DCC-assay): incorporation of dansylcadaverine into dimethylcasein; details: for IC50: read-out: IC50 TG2, recombinant human TG2 10 nM, dansylcadaverine incorporation into dimethylcasein
# Method: To illustrate the advantage of branched alkyl moieties over aromatic moieties, we refer to reference compounds Ref. 2 (ZED1227, U.S. Pat. No. 9,434,763 B2) and Ref. 3 (A8, ZED1047). Inhibition data were determined using the classical fluorescent transamidation assay (dansylcadaverine incorporation into methylated casein, DCC-assay) as described [Buchold, C.; Hils, M.; Gerlach, U.; Weber, J.; Pelzer, C.; Heil, A.; Aeschlimann, D.; Pasternack, R. Features of ZED1227: The First-In-Class Tissue Transglutaminase Inhibitor Undergoing Clinical Evaluation for the Treatment of Celiac Disease. Cells 2022, 11, 1667. https://doi.org/10.3390/cells11101667]. Casein is one of the best known high molecular weight (24 kDa) protein substrates for transglutaminases. Please note, the IC50 value of Ref. 3 (A8) published in U.S. Pat. No. 9,434,763 B2 cannot be compared to the present data, relying on a fluorogenic isopeptidase assay.
# To this extent, inhibition data were determined using the classical fluorescent transamidation assay (dansylcadaverine incorporation into methylated casein, DCC-assay) as described in Büchold et al. [Büchold, C.; Hils, M.; Gerlach, U.; Weber, J.; Pelzer, C.; Heil, A.; Aeschlimann, D.; Pasternack, R. Features of ZED1227: The First-In-Class Tissue Transglutaminase Inhibitor Undergoing Clinical Evaluation for the Treatment of Celiac Disease. Cells 2022, 11, 1667. https://doi.org/10.3390/cells11101667]. Casein is one of the best known high molecular weight (24 kDa) protein substrates for transglutaminases. Inhibition data of the inventive compounds was compared with inhibition of compounds disclosed in U.S. Pat. No. 9,434,763 B2, particularly, compound A8, which is denoted herein as Reference 3. It is noteworthy that the IC50 values of compounds A8 published in U.S. Pat. No. 9,434,763 B2 and E16 from U.S. Pat. No. 11,072,634 B2 cannot be compared to the present data, relying on a fluorogenic isopeptidase assay.
# For the determination of potency of inhibitors against tissue transglutaminase, the incorporation of dansylcadaverine into dimethylcasein (Zedira product T036, Lorand et al., Anal Biochem, 1971, 44:221-31) was measured using recombinant human transglutaminase 2 (Zedira Product T022).
# The tissue transglutaminase is diluted in buffer (50 mM Tris-HCl, 7.5 mM CaCl2), 150 mM NaCl, pH=7.4). The final concentration of TG2 in the assay is 10 nM.
# A 10 mM inhibitor stock solution is prepared in DMSO, and from this a serial 1:2-fold dilution series is prepared also in DMSO. Each of the initial dilutions is subsequently diluted 1:50-fold with buffer (50 mM Tris-HCl, 7.5 mM CaCl2), 150 mM NaCl, pH=7.4) to yield the final working dilutions containing 2% (v/v) DMSO.
# 15 μl of inhibitor working dilution are added per well of a 96 well microtiter plate. As control, 15 μl of a 2% (v/v) DMSO solution prepared using the buffer mentioned above are added per well.
# Immediately before starting the assay, 600 μl transglutaminase working solution are added to 11.4 ml assay buffer (50 mM Tris-HCl, 10 mM CaCl2), 10 mM glutathione, 2.5% glycerol, 16.7 µM dansylcadaverine, 4 uM N,N-dimethylcasein, 200 mM NaCl, pH=8.0). 285 μl of this reaction mix are added per well containing the inhibitor.
# Increase in fluorescence is measured using λex=330 nm and λem=500 nm at 37° C. for 30 min. A slope of the increase in fluorescence between 20 and 30 min is calculated for determination of the IC50 value (inhibitor concentration at which 50% of the initial activity is blocked).
# Analysis of enzymatic activity is performed by calculation of the slope of an increase in fluorescence intensity. IC50 values are calculated by plotting the enzymatic activity (as percentage from control containing 2% DMSO instead of inhibitor) against the inhibitor concentration. IC50 is defined as the inhibitor concentration blocking 50% of initial enzyme activity.
# [2] = logD by shake flask method (octanol / PBS pH 7.4, HPLC); details: octanol / PBS pH 7.4, shake flask
# Method: In order to classify the inventive compounds according to their lipophilicity, LogD values (distribution coefficient) were determined by means of the well-established shake flask method, measuring the partition of a compound between an octanol and phosphate-buffered saline (PBS, pH 7.4) by HPLC.
# The LogD is pH dependent and is a “predictor” for in-vivo properties. LogD combines lipophilicity (intrinsic structural property of the molecule, logP) and ionizability (pKa). Compounds with a moderate lipophilicity (LogD values from 0 to 3) are usually advantaged for oral absorption, being in balance between solubility and permeability. However, sophisticated formulation of a compound might improve oral bioavailability for highly lipophilic compounds.
# [3] = system: Caco-2 barrier; test: Caco-2 permeability assay (CacoReady kit); details: for Papp [cm/s] ×10^−6: Caco-2 barrier, CacoReady kit, above 1×10^−6 cm/s classified as permeable
# Method: Permeability coefficients (Papp values) were obtained from Caco-2 barrier studies predicting oral/intestinal bioavailability of the tested compounds. The assays were performed by using CacoReady™ ready-to-use kits from ReadyCell according to the manufacturers protocol.
Structure (SMILES),fold more potent compared to Ref. 6 ([1]; IC50 ratio versus Ref. 6),IC50 [1],logD [2],Papp [cm/s] ×10^−6 [3],times less potent in comparison to compound II-111 ([1]; IC50 ratio versus II-111),Papp [3]
CCC(CC)CNC(=O)Cn1cccc(NC(=O)[C@H](CCC(=O)C(=O)NC)NC(=O)c2cncn2C)c1=O,about 10 fold,400 to 2500 nM,A (A: logD < 1),A (Papp < 1 × 10^−6 cm/s),,
CNC(=O)C(=O)CC[C@H](NC(=O)c1cccnc1)C(=O)Nc1cccn(CC(=O)NCCc2ccccc2)c1=O,,2500 to 10000 nM,,,more than 25 times,< 1 ×10⁻⁶ cm/s
CCOC(=O)/C=C/CC[C@H](NC(=O)c1cccnc1)C(=O)Nc1ccc(C)n(CC(=O)NCCc2ccccc2)c1=O,,2500 to 10000 nM,B (B: 1 ≤ logD < 3),A (Papp < 1 × 10^−6 cm/s),,
CNC(=O)C(=O)CC[C@H](NC(=O)c1oc2ccccc2c1C)C(=O)Nc1cccn(CC(=O)NC23CC4C5CC6CC4C(C2)C(C6)C5C3)c1=O,,40 to 400 nM,,,,1 to 10 ×10⁻⁶ cm/s
